In PubChem BioAssay AID651718 (The Scripps Research Institute Molecular Screening Center, 2012) one finds inhibition data, which are given here for 65 compounds.

Only a part is listed here, and it is no random draw. Calls of active or inactive are those of the source. Cut-off read from the data, not from the text of the source: active = inhibition above about 4.5%; inactive = the rest.

In this assay the test system is Methionine sulfoxide reductase A (Bos taurus). As to the kind of experiment: inhibition of methionine sulfoxide reductase A – biochemical, absorbance, bovine, HTS, primary screen (AID 651718).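 Note: 0% = vehicle wells with enzyme and 100% = reference inhibitor wells.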 To be noted: purified bovine MsrA, absorbance read-out; at 15.5 µM; active compounds read high.
In the case of `CC(=O)Nc1ccc(Oc2c([N+](=O)[O-])cc([N+](=O)[O-])cc2[N+](=O)[O-])cc1`, the inhibition is active: 4.83%.

As to `CC(=O)Nc1ccc([As](=O)(O)O)c(O)c1`, the inhibition is inactive: -0.49%.

In the case of `C[C@H]1OP(=O)(Oc2ccccc2)C[C@@H]2O[C@@H]21` (stereo not given in full), the inhibition was inactive: 0.45%.

Regarding `C[C@@H]1C=CCP(=O)(Oc2ccccc2)O1` (stereo not given in full), the inhibition is inactive: 0.53%.

Turning to `Cc1ccccc1CN(C)C(=O)COC(=O)C(O)(c1ccccc1)c1ccccc1`, the inhibition was inactive: 0.72%.

`COC(=O)C1(C)COP(=O)(NCc2ccccc2)OC1` (stereo not given): the inhibition was inactive: 0.49%.

Take `CC(=O)c1ccc(N2CC2c2ccncc2)cc1` (stereo not given): the inhibition was inactive: 2.15%.

In the case of `N#C/C(=C\c1ccc(N(CCBr)CCBr)cc1)C(N)=O`, the inhibition was inactive: 0.4%.

With `CC(C)(C)C(=O)NC(Sc1ccccc1)C(Cl)(Cl)Cl` (stereo not given), the inhibition is inactive: -0.41%.

Take `CCc1cc(O)c([N+](=O)[O-])c(C)c1[N+](=O)[O-]`: the inhibition was inactive: 0.31%.

With `CCOc1ccc(C2=NCC(CBr)S2)cc1` (stereo not given), the inhibition was inactive: -1.37%.

With `O=P1(Nc2nc3ccc(Cl)cc3s2)COc2ccccc2O1` (stereo not given), the inhibition is inactive: 2.42%.

For the compound `O=c1c2cc([N+](=O)[O-])ccc2[nH]c2c([N+](=O)[O-])cc([N+](=O)[O-])cc12`, the inhibition was inactive: 1.64%.

Take `CN(C)C(=O)Oc1noc2ccccc12`: the inhibition is inactive: -0.93%.

As to `CC(NC(=O)COC(=O)C(O)(c1ccccc1)c1ccccc1)c1ccccc1` (stereo not given), the inhibition was inactive: -0.85%.

For the compound `Cc1ccccc1OP(=O)(Nc1ccccn1)Oc1ccccc1C`, the inhibition is inactive: 1.31%.

In the case of `CCC(=O)N1C2C3N(C(=O)CC)C1C1N(C(=O)CC)C(C(N1C(=O)CC)N3C(=O)CC)N2C(=O)CC`, the inhibition was inactive: -0.25%.

As for `O=C(OC1CN2CCC1CC2)c1ccccc1` (stereo not given), the inhibition was inactive: 0.3%.

With `CC(=O)NC(SC(=S)N(CC(C)C)CC(C)C)C(Cl)(Cl)Cl` (stereo not given), the inhibition is inactive: -1.2%.

On to `Cc1ccc(OP(=O)(Nc2ccccn2)Oc2ccc(C)cc2)cc1`, for which the inhibition was inactive: 0.04%.

Take `COC(=O)c1cc2c(s1)N=C(c1ccccc1)N(C)P2(=O)N1CCOCC1` (stereo not given): the inhibition was inactive: 2%.

Take `O=P1(N(CCCl)CCCl)OCCC2CCCCN21` (stereo not given): the inhibition is inactive: -0.35%.

With `Cc1ccc(NP(=O)(Oc2cccc(C)c2)Oc2cccc(C)c2)nc1`, the inhibition is inactive: -0.54%.

On to `c1ccc(-c2nn[nH]n2)c(-c2nn[nH]n2)c1`, for which the inhibition was inactive: -0.35%.

Consider `CCNC(=S)/N=C(\N)N[N+](=O)[O-]`, for which the inhibition is inactive: 1.58%.

In the case of `O=C(NC1CCS(=O)(=O)C1)NP(=S)(Oc1ccccc1)Oc1ccccc1` (stereo not given), the inhibition is inactive: 1.39%.

Turning to `O=C(OC1CN2CCC1CC2)c1cccc(Cl)c1` (stereo not given), the inhibition is inactive: 0.42%.

As to `C(Cc1nn[nH]n1)Cc1nn[nH]n1`, the inhibition was inactive: -1.38%.

Consider `Nc1ccc([As](=O)(O)c2ccc([N+](=O)[O-])cc2)cc1`, for which the inhibition was inactive: -0.31%.

Turning to `C/C(N)=N\P(=O)(OCc1ccccc1)OCc1ccccc1`, the inhibition is inactive: -0.7%.

`O=[As](O)(c1ccccc1)c1ccc(O)cc1`: the inhibition is inactive: 0.49%.

For `CC(=O)NC(SC(=S)N(C)C)C(Cl)(Cl)Cl` (stereo not given), the inhibition is inactive: -1.29%.

With `O=[N+]([O-])c1ncn(CCn2cnc([N+](=O)[O-])n2)n1`, the inhibition was inactive: 0%.

As to `C[C@H]1OP(=O)(Oc2ccccc2)[C@H](O)[C@H](O)[C@H]1N=[N+]=[N-]` (stereo not given in full), the inhibition is inactive: -1.24%.

Regarding `O=P(Nc1nc2ccccc2s1)(c1ccccc1)c1ccccc1`, the inhibition was inactive: 0.92%.

Regarding `O=P(Nc1ccccn1)(c1ccc(Br)cc1)c1ccc(Br)cc1`, the inhibition is inactive: 2.14%.

Consider `CN(C)C1(CNC(=O)c2ccc(Cl)c(S(N)(=O)=O)c2)CCCCC1`, for which the inhibition was inactive: -0.52%.

Regarding `COc1ccc(N)c([N+](=O)[O-])c1[N+](=O)[O-]`, the inhibition was inactive: 0.13%.

For `Nc1ccc(CCCCOc2ccccc2)cc1`, the inhibition was active: 4.78%.

For `c1nnnn1CCn1cnnn1`, the inhibition was inactive: -1.74%.

`CC(C)C(=O)NC(Sc1ccccc1)C(Cl)(Cl)Cl` (stereo not given): the inhibition is inactive: 1.84%.

With `O=P(Nc1nccs1)(c1ccccc1)c1ccccc1`, the inhibition is inactive: -0.5%.

With `CC1CCN(C(=O)Oc2c(Cl)cc(Cl)c3cccnc23)CC1`, the inhibition was inactive: -0.42%.

Turning to `c1cc(-c2nn[nH]n2)ccc1-c1nn[nH]n1`, the inhibition was inactive: -0.63%.

As for `CN(C)C(=O)OCCc1n(C)cc[n+]1C`, the inhibition was inactive: -0.75%.

As for `CC(C)c1nc(Nc2ccccc2)n(P(=O)(N(C)C)N(C)C)n1`, the inhibition is inactive: 0.13%.

Take `CC(C)=N/N=C(\N)N[N+](=O)[O-]`: the inhibition was inactive: -2.14%.

In the case of `CCN(/C(=N/P(=O)(N1CCOCC1)N1CCOCC1)N1CCOCC1)c1ccc(OC)cc1`, the inhibition was inactive: 0.24%.

`C[N+]1=C2C=CC=CC=C2SC12C([N+](=O)[O-])=CC([N+](=O)[O-])=C[C-]2[N+](=O)[O-]` (stereo not given): the inhibition is inactive: 1.56%.

As to `Nc1ccc([As](=O)(O)c2ccc(N)cc2)cc1`, the inhibition is inactive: 0.9%.

For `CCc1nc2c(n1)c1c(non1O)c1c2no[n+]1[O-]`, the inhibition is inactive: 1.02%.

Turning to `O=[N+]([O-])c1cc([N+](=O)[O-])c(CCNc2ccccc2)c([N+](=O)[O-])c1`, the inhibition is inactive: 3.39%.

Turning to `Cc1ccc(NP(=O)(Oc2ccccc2)Oc2ccccc2)nc1`, the inhibition is inactive: 0%.

Turning to `O=[N+]([O-])c1cccc2n[nH]nc12`, the inhibition is inactive: 2.26%.

Turning to `CC(=O)N1C2C3N(C(C)=O)C1C1N(C(C)=O)C(C(N1C(C)=O)N3C(C)=O)N2C(C)=O`, the inhibition was inactive: 0.2%.

In the case of `COc1ccc(C2=NCC(CBr)S2)cc1` (stereo not given), the inhibition was inactive: -0.69%.

Regarding `O=C(O)CNc1ccc([As](=O)(O)O)cc1`, the inhibition is inactive: -0.1%.

Consider `COC(=O)C1(C)COP(=O)(Nc2ccccc2)OC1` (stereo not given), for which the inhibition was inactive: 0.57%.

As for `O=[N+]([O-])c1cccc(NC2=NCC(CBr)S2)c1` (stereo not given), the inhibition is inactive: 0.17%.

For `O=[N+]([O-])c1ncn(CCn2ncnc2[N+](=O)[O-])n1`, the inhibition was inactive: 1.13%.

On to `CC(C)(C)C(=O)NC(Sc1ccncn1)C(Cl)(Cl)Cl` (stereo not given), for which the inhibition was inactive: 0.82%.

For `O=C(Nc1cc([As](=O)(O)O)ccc1O)c1ccccc1`, the inhibition was inactive: 0.05%.

As to `O=P1(N(CCCl)CCCl)OCCCS1` (stereo not given), the inhibition is inactive: -0.58%.

In the case of `Nc1cccc2ccc([As](=O)(O)O)cc12`, the inhibition is inactive: 1.63%.

As for `CCN(N=Nc1nonc1N)c1nonc1N`, the inhibition is inactive: 2.64%.
